This experiment deals with bi-lateral subcutaneous tumors derived from 779E cells. The experiment is described as follows: in-vivo analysis of ADCs cytotoxic effect in subcutaneous mouse model (loss of GFP fluorescence signal, IVIS imaging). Conditions: nude mice, 779E subcutaneous tumors, tail vein injection, after 12 days. The protocol: The following is an exemplary protocol and results for in-vivo analysis of ADCs cytotoxic effect in subcutaneous mouse model as illustrated in FIG. 10.
After purification via gel chromatography, where the cytotoxicity effect of the drug on the eIF5A positive tumor cell compared to eIF5A negative cells was determined by measuring the loss of fluorescence signal of the GFP tagged tumor cells after administration of the ADC in vivo via tail vein injection in mice using an IVIS Spectrum in vivo imaging system.

For GC7-Cetuximab-SPDP-DYLIGHT 550 NHS, the tumor growth inhibition was 84.4%.

On to GC7-Cetuximab-EDC-DYLIGHT 550 NHS, for which the tumor growth inhibition is on record as −3.7%.

The values above are taken from patent publication US11865182B2, “Product and process for employing GC7 (N1-guanyl-1,7-diaminoheptane) based antigen binding conjugates in cancer therapy” (priority 2017, dated 2024).
